Measured values as given in article PMC10249106 (ACS Omega, 2023).

Chains of the proteins cited; added tags and fusions are not shown.
UniProt P11309, whole entry: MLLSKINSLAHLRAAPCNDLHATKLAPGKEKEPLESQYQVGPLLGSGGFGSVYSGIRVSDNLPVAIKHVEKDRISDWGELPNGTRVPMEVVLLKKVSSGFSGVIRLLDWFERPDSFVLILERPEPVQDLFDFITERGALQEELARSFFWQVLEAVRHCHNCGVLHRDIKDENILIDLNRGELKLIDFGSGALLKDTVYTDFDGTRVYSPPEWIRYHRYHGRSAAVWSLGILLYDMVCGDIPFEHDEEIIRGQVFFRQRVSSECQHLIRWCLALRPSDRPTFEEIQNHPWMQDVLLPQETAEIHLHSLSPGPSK

Molecular target: Pim-1 kinase (Homo sapiens, UniProt P11309)
Experiment: Pim-1 kinase inhibition, luminescent ADP-Glo kinase assay
Assay type: biochemical

IC50: 560 ± 30 nM
SMILES: O=c1c(O)c(-c2ccc(O)c(O)c2)oc2cc(O)c(O)c(O)c12 [quercetagetin, 3,3′,4′,5,6,7-hexahydroxyflavone, reference compound]
